Results on one molecule are retold here after patent publication US11649222B2, “Compounds” (UNIVERSITETET I OSLO, priority 2016, dated 2023).

Like-named read-outs stand apart in the source and are kept apart here.

One series has as its system K. pneumoniae K66-45. The class given is cell-based. Conditions: inhibitor 25 mg/L. The method, then: After plating and grown overnight at 37° C., only single colonies, ignoring any touching the edges of the plate, were counted.
10^9 CFU K66-45 (Mueller-Hinton broth, no selection) was plated and grown overnight, 37° C. Only single colonies, ignoring any touching the edges of the plate, were counted.

Series [1] in a line: In vivo toxicity in healthy mice. More on the design: species or system Balb/c mice. The settings on record: ± SEM. The method, then:
Female Balb/c mice (4 weeks old, approximately 20 g, Charles River, L'Arbresle, France) acclimatized 4 days in the animal facility before initiation of experiments. […] Individual weights were followed four days a week. Relative weight was calculated as the ratio between the weight of the day and the weight of the first day. The protocol for experiments in mice was approved by the University of Lyon Animal Ethics Committee. Toxicity experiments were performed by Antineo (www.antineo.fr).

As for `CN(C[C@H](O)[C@@H](O)[C@H](O)[C@H](O)CO)C(=O)c1ccc(CN(Cc2ccccn2)Cc2ccccn2)nc1` [Example 26, 6-((bis(pyridin-2-ylmethyl)amino)methyl)-N-methyl-N-((2S,3R,4R,5R)-2,3,4,5,6-pentahydroxyhexyl)nicotinamide], the “RF - no of colonies” value in the series with K. pneumoniae K66-45 (MEM 1 mg/L) was 74 colonies; with K. pneumoniae K66-45 (MEM 2 mg/L) it was 35 colonies. Further, the “Relative weight of mice” value in series [1] (Day 1, treatment 4 mg/kg intraperitoneally) was 100 ± 0%; in series [1] (Day 8, treatment 8 mg/kg) it was 101 ± 0%; in series [1] (Day 16, treatment 16 mg/kg), 105 ± 0%; in series [1] (Day 22, treatment 32 mg/kg) it was 105 ± 0%; in series [1] (Day 29, treatment 64 mg/kg) it was 106 ± 0%; in series [1] (Day 36, treatment 120 mg/kg), 109 ± 0%. In addition, in series [1] (Day 43, no injection, reporting), the “Relative weight of mice” value turned out to be 107 ± 0%.
